Some compounds may have been tested in ways that are not shown here.

Data on two compounds can be found in patent publication US8716029B1, “Carbon nanotube sensors employing synthetic multifunctional peptides for surface functionalization” (dated 2014).

Assay [1] relates to P1ASP1C-functionalized SWNT-FET device. Nature of the assay: P1ASP1C-functionalized SWNT-FET device response to vapors (source-drain current). The note with it: saturated vapor at 25° C., 1 atm: TNT 12 ppb, RDX 6.6 ppt, HPT 2100 ppm; gate and source-drain bias −0.5 and 0.2V. As to the method:
(§1) To test the response of the device in a gaseous environment, the SWNT-FET device was exposed to TNT (12 ppb), RDX (6.6 ppt), and HPT (2100 ppm) vapors in a chamber saturated with each vapor at 25° C., 1 atm. The response of the SWNT-FET device was monitored by tracking the source-drain current (ISD). For example, a 4-probe station (MMR) equipped with a Keithley semiconductor parameter analyzer (SCS4200) may be used. As the device was exposed to the three chemicals, the source-drain current was monitored at a gate and source-drain bias voltage of −0.5 and 0.2V, respectively. Because of variations in the vapor pressure at the given experimental conditions, the selectivity of the functionalized SWNT-FET device was tested by comparing its response to that of the bare SWNT-FET device upon exposure to each chemical compound in turn.
FIG. 4 is a graph of the response of the P1ASP1C-functionalized SWNT-FET device to TNT 410 (circles), RDX 420 (triangles), and HPT 430 (squares). After introduction of each respective vapor 440, the ISD of the functionalized SWNT-FET was monitored as before. Upon exposure to RDX 420, the ISD remained virtually unchanged, just as it had done in FIG. 3 with the bare SWNT-FET.

Assay [2] can be described thus: Bare SWNT-FET device response to vapors (source-drain current). The note with it: saturated vapor at 25° C., 1 atm: TNT 12 ppb, RDX 6.6 ppt, HPT 2100 ppm; gate and source-drain bias −0.5 and 0.2V. As to the method: as §1
FIG. 3 is a graph of the response of the bare SWNT-FET device to TNT 310 (circles), RDX 320 (triangles), and HPT 330 (squares). After introduction of each respective vapor 340 into the chamber, the ISD of the bare SWNT-FET decreased upon exposure to both TNT 310 and HPT 330 but remained virtually unchanged upon exposure to RDX 320.

cyclotrimethylenetrinitramine: the “change of source-drain current (ISD) of P1ASP1C-functionalized SWNT-FET upon vapor exposure” value in assay [1] is “remained virtually unchanged”. The “change of source-drain current (ISD) of bare SWNT-FET upon vapor exposure” value in assay [2] is “remained virtually unchanged”.

`Cc1c([N+](=O)[O-])cc([N+](=O)[O-])cc1[N+](=O)[O-]`: the “change of source-drain current (ISD) of P1ASP1C-functionalized SWNT-FET upon vapor exposure” value in assay [1] is reported as “marked increase”. The “change of source-drain current (ISD) of bare SWNT-FET upon vapor exposure” value in assay [2] is “decreased”.
